In US9980940B2, “Composition for the treatment of neuropathies and/or neuropathic pain” (Kolinpharma S.p.A., priority 2014, dated 2018):

Tested on: THP-1 human monocytes
Conditions: 24 h

Structure (SMILES): CC(=O)Oc1c(C)c(C)c2c(c1C)CCC(C)(CCC[C@H](C)CCC[C@H](C)CCCC(C)C)O2 (some centres unmarked) [Vitamin E acetate]
- Maximum non-cytotoxic concentration (components A, B, C tested individually (lipoic acid, vitamin C, vitamin E acetate together as component B), mortality not greater than 30%): 0.0113 mg/mL
- Non-cytotoxic concentration (each component when tested together (A + B + C)): 0.00023 mg/mL
